Reference: US20090304869A1, “Peptides Having an Ace Inhibiting Effect” (priority 2005, published 2009)
pIC50: −log10 of the molar value. Each block holds one molecule with its values, some of them ahead of it.

Columns and labels:
ACE = experiment: Modified Matsui ACE inhibition assay; assay type: biochemical
Experimental: This ACE inhibition activity was assayed according to the method of Matsui et al. (Matsui, T. et al. (1992) Biosci. Biotech. Biochem. 56: 517-518) with the modifications described below.
For each sample 75 μl 3 mM hippuryl histidine leucine (Hip-His-Leu, Sigma chemicals Co.; the chemical was dissolved in 250 mM Borate containing 200 mM NaCl, pH 8.3); 20 μl 0.1 U/ml ACE (obtained at Sigma) or H2O, and 25 μl sample or H2O were mixed (see Table 1). The mixtures were incubated at 37° C. and stopped after 30 min by adding 125 μl 0.5 M HCl. Subsequently, 225 μl bicine/NaOH solution (1 M NaOH:0.25 M bicine (4:6)) was added, followed by 25 μl 0.1 M TNBS (2,4,6-Trinitrobenzenesulfonic acid, Fluka, Switzerland; in 0.1 M Na2HPO4). After incubation for 20 min. at 37° C., 4, ml 4 mM Na2SO3 in 0.2 M NaH2PO4 was added and the absorbance at 416 nm was measured with UV/Vis spectrophotometer (Shimadzu UV-1601 with a CPS controller, Netherlands).
The amount of ACE inhibition (ACEI) activity was calculated as a percentage of inhibition compared with the conversion rate of ACE in the absence of an inhibitor:
wherein • C1=Absorbance without ACE inhibitory component (=max. ACE activity) [AU]. • C2=Absorbance without ACE inhibitory component and without ACE (background) [AU]. • S1=Absorbance in the presence of ACE and the ACE inhibitory component [AU]. • S2=Absorbance in the presence of the ACE inhibitory component, but without ACE [AU].

[1] = Simulated in-vitro gastro-intestinal digestion of synthetic MAP and ITP (micro-dissolution); conditions: for conc b: trial b; for conc a: trial a; for stability under gastro-intestinal conditions: synthetic peptide
[2] = Simulated in-vitro gastro-intestinal digestion of protein hydrolysate (PH); assay type: in vitro ADME; conditions: for Concentration in PH: PH before digestion; for resistance against GIT digestion: PH in artificial gastro-intestinal tract; for Concentration in PH after digestion: after digestion in artificial human gastro intestinal tract, 125 min
From the text: Milk proteins and milk protein hydrolysates are commonly known as precursors of a large range of ACE inhibitory peptides. After consumption, the proteins and peptides are subjected to various digestive enzymatic processes in the human gastrointestinal tract, which results in the release of in-vivo ACE inhibitory peptides. In order to assess the break-down of the identified bioactive peptides and the formation of novel active peptides after human consumption, PH was processed by an artificial gastro-intestinal tract, which simulated conditions typically found in the human body. At certain times samples were taken from the GIT model system. These were also analysed using the on-line HPLC-Bioassay-MS or HRS-MS system.
Digestion of protein hydrolysate (hereafter PH), a hydrolyzed casein protein isolate obtained from DSM (Delft, The Netherlands). The protein hydrolysate (PH) was prepared by incubation of 10 wt % potassium caseinate with overproduced and essentially pure endoprotease from Aspergillus niger as described in WO 02/45524.
The digestion procedure was performed using a dissolution model (Vankel) with a 100 ml flask. The temperature of the water bath was set to 37.5° C. and the paddle speed was chosen such that the sample was kept in suspension (100 rpm).
About 3.4 grams of PH (protein level of 59%) was dissolved/suspended in 100 ml Milli-Q water. During gastric simulation 5 M HCl was used to decrease the pH, at the end of gastric simulation and during the duodenal phase 5 M NaOH was used to raise the pH.
The protein hydrolysate suspension was preheated to 37.5° C. At t=0 min 0.31 g of pepsin (Fluka order no. 77161) was suspended separately in 5 ml of the sample and was directly added.
The pH was adjusted slowly by hand using a separate pH meter according to the following scheme;
At t=90 min 0.139 g of 8 times USP pancreatin (Sigma order no. P7545) was suspended separately in 5 ml of the sample and was directly added;
The experiment was stopped at t=125 min and the pH was checked (was still pH 7).
The samples were transferred into a beaker and were heated in a microwave till boiling. Subsequently, the samples were transferred into glass tubes and incubated at 95° C. for 60 min. This is necessary to inactivate all protease activity. After cooling the samples were put in falcon tubes and centrifuged for 10 min at 3000×g. The supernatant was freeze dried. The total N concentration was determined and converted to protein level using the Kjeldahl factor of casein (6.38). The protein level of the PH digest was 48.4%.

[3] = 1 microgram/ml, 30 min (gastric)
[4] = 1 microgram/ml, 60 min (gastric)
[5] = 1 microgram/ml, 65 min (intestinal)
[6] = 1 microgram/ml, 75 min (intestinal)
[7] = 1 microgram/ml, 90 min (intestinal)
[8] = 1 microgram/ml, 120 min (intestinal)
[9] = 10 microgram/ml, 30 min (gastric)
[10] = 10 microgram/ml, 65 min (intestinal)
[11] = 10 microgram/ml, 75 min (intestinal)
[12] = 10 microgram/ml, 90 min (intestinal)
[13] = 10 microgram/ml, 120 min (intestinal)
[14] = 10 microgram/ml, 60 min (gastric)

pIC50 (ACE): 6.40
% average ([1]; 1 microgram/ml, 0 min): 100%
% remaining trial 1 ([1]; 1 microgram/ml, 0 min): 100%
% remaining trial 2 ([1]; 1 microgram/ml, 0 min): 100%
conc b ([1]; 1 microgram/ml, 0 min): 2962.5 ng/mL
% remaining trial 2 [1, 3]: 93%
conc b [1, 3]: 2760 ng/mL
% remaining trial 1 [1, 4]: 64%
conc a [1, 4]: 1902.6 ng/mL
% remaining trial 1 [1, 5]: 47%
% remaining trial 2 [1, 5]: 56%
conc a [1, 5]: 1384.6 ng/mL
conc b [1, 5]: 1654.1 ng/mL
% remaining trial 1 [1, 6]: 43%
% remaining trial 2 [1, 6]: 54%
conc b [1, 6]: 1608.3 ng/mL
% remaining trial 1 [1, 7]: 25%
% remaining trial 2 [1, 7]: 31%
conc a [1, 7]: 730.5 ng/mL
conc b [1, 7]: 911.6 ng/mL
% remaining trial 1 [1, 8]: 13%
% remaining trial 2 [1, 8]: 17%
conc a [1, 8]: 377.2 ng/mL
conc b [1, 8]: 503.3 ng/mL
% average ([1]; 10 microgram/ml, 0 min): 100%
% remaining trial 1 ([1]; 10 microgram/ml, 0 min): 100%
% remaining trial 2 ([1]; 10 microgram/ml, 0 min): 100%
conc b ([1]; 10 microgram/ml, 0 min): 82499.2 ng/mL
% remaining trial 1 [1, 9]: 61%
% remaining trial 2 [1, 9]: 93%
conc a [1, 9]: 50635.6 ng/mL
conc b [1, 9]: 76600.6 ng/mL
% remaining trial 1 [1, 10]: 35%
% remaining trial 2 [1, 10]: 40%
conc a [1, 10]: 28492.5 ng/mL
conc b [1, 10]: 33339.1 ng/mL
% remaining trial 1 [1, 11]: 27%
% remaining trial 2 [1, 11]: 27%
conc a [1, 11]: 21936.4 ng/mL
conc b [1, 11]: 21991.9 ng/mL
% remaining trial 1 [1, 12]: 9%
% remaining trial 2 [1, 12]: 13%
conc a [1, 12]: 7588.3 ng/mL
conc b [1, 12]: 10490.8 ng/mL
% remaining trial 1 [1, 13]: 3%
% remaining trial 2 [1, 13]: 3%
conc a [1, 13]: 2810.6 ng/mL
conc b [1, 13]: 2661.8 ng/mL
remaining at 2 h, 1 microgram/ml ([1]; pH 6.8): 15%
stability under gastro-intestinal conditions [1]: reasonably good stability
stability in the human intestinal tract [2]: stable
Concentration in PH [2]: 2851.4 μg g^−1 powder
resistance against GIT digestion [2]: high resistance
Concentration in PH after digestion [2]: 3095.8 μg g^−1 powder
SMILES: CSCC[C@H](N)C(=O)N[C@@H](C)C(=O)N1CCC[C@H]1C(=O)O [MAP, Met-Ala-Pro]

pIC50 (ACE): 5.00
% average ([1]; 1 microgram/ml, 0 min): 100%
% remaining trial 1 ([1]; 1 microgram/ml, 0 min): 100%
% remaining trial 2 ([1]; 1 microgram/ml, 0 min): 100%
conc a ([1]; 1 microgram/ml, 0 min): 1325.201 ng/mL
conc b ([1]; 1 microgram/ml, 0 min): 901.297 ng/mL
% remaining trial 1 [1, 3]: 93%
conc a [1, 3]: 1236.423 ng/mL
conc b [1, 3]: 952.165 ng/mL
% remaining trial 1 [1, 4]: 72%
% remaining trial 2 [1, 4]: 99%
conc a [1, 4]: 950.665 ng/mL
conc b [1, 4]: 893.015 ng/mL
% remaining trial 1 [1, 5]: 55%
% remaining trial 2 [1, 5]: 75%
conc a [1, 5]: 722.452 ng/mL
conc b [1, 5]: 677.991 ng/mL
% remaining trial 1 [1, 6]: 43%
% remaining trial 2 [1, 6]: 77%
conc b [1, 6]: 698.078 ng/mL
% remaining trial 1 [1, 7]: 46%
% remaining trial 2 [1, 7]: 78%
conc a [1, 7]: 603.143 ng/mL
conc b [1, 7]: 704.863 ng/mL
% remaining trial 1 [1, 8]: 53%
% remaining trial 2 [1, 8]: 75%
conc a [1, 8]: 701.749 ng/mL
conc b [1, 8]: 678.751 ng/mL
% average ([1]; 10 microgram/ml, 0 min): 100%
% remaining trial 1 ([1]; 10 microgram/ml, 0 min): 100%
% remaining trial 2 ([1]; 10 microgram/ml, 0 min): 100%
conc a ([1]; 10 microgram/ml, 0 min): 11230.3 ng/mL
conc b ([1]; 10 microgram/ml, 0 min): 9388.467 ng/mL
% remaining trial 1 [1, 9]: 78%
% remaining trial 2 [1, 9]: 84%
conc a [1, 9]: 8725.687 ng/mL
conc b [1, 9]: 7884.828 ng/mL
% remaining trial 1 [1, 14]: 76%
conc a [1, 14]: 8542.271 ng/mL
conc b [1, 14]: 9951.495 ng/mL
% remaining trial 1 [1, 10]: 60%
% remaining trial 2 [1, 10]: 91%
conc a [1, 10]: 6739.74 ng/mL
conc b [1, 10]: 8504.414 ng/mL
% remaining trial 1 [1, 11]: 62%
% remaining trial 2 [1, 11]: 64%
conc a [1, 11]: 7016.45 ng/mL
conc b [1, 11]: 6052.258 ng/mL
% remaining trial 1 [1, 12]: 64%
% remaining trial 2 [1, 12]: 60%
conc a [1, 12]: 7212.26 ng/mL
conc b [1, 12]: 5660.004 ng/mL
% remaining trial 1 [1, 13]: 46%
conc a [1, 13]: 5168.85 ng/mL
stability under gastro-intestinal conditions [1]: excellent stability
stability in the human intestinal tract [2]: stable
Concentration in PH [2]: 903.74 μg g^−1 powder
resistance against GIT digestion [2]: high resistance
Concentration in PH after digestion [2]: 889.13 μg g^−1 powder
SMILES: CC[C@H](C)[C@H](N)C(=O)N[C@H](C(=O)N1CCC[C@H]1C(=O)O)[C@@H](C)O [ITP, Ile-Thr-Pro]
